Tests used:
Assay type in all cases: cell-based
BaF3_EGFRWT cells = assay: Cell growth inhibition assay, BaF3_EGFRWT; conditions: 72 h, read-out: EGFR WT IC50 (nM), cell growth inhibition
BaF3_HER2YVMA cells = assay: Cell growth inhibition assay, BaF3_HER2YVMA; conditions: 72 h, 3 days treatment, CellTiterGlo 2.0, read-out: HER2-YVMA IC50 (nM), cell growth inhibition
BaF3_HER2WT cells = assay: Cell growth inhibition assay, BaF3_HER2WT; conditions: 72 h, read-out: HER2 WT IC50 (nM), cell growth inhibition

| Compound | IC50 (BaF3_EGFRWT cells) [nM] | IC50 (BaF3_HER2YVMA cells) [nM] | IC50 (BaF3_HER2WT cells) [nM] |
| --- | --- | --- | --- |
| Cc1cc(Nc2ncnn3ccc(C4CCN(C(=O)/C=C/CN5CCN(C)CC5)CC4)c23)ccc1Oc1ccc2c(c1)ncn2C [Example 131, (E)-1-(4-(4-((3-methyl-4-((1-methyl-1H-benzo[d]imidazol-5-yl)oxy)phenyl)-amino)pyrrolo[2,1-f][1,2,4]triazin-5-yl)piperidin-1-yl)-4-(4-methylpiperazin-1-yl)but-2-en-1-one] | 1500 to 5000 |  |  |
| COC1CN(C/C=C/C(=O)N2CCC(c3ccn4ncnc(Nc5ccc(Oc6ccc7c(c6)ncn7C)c(C)c5)c34)CC2)C1 [Example 132, (E)-4-(3-methoxyazetidin-1-yl)-1-(4-(4-((3-methyl-4-((1-methyl-1H-benzo[d]imi-dazol-5-yl)oxy)phenyl)amino)pyrrolo[2,1-f][1,2,4]triazin-5-yl)piperidin-1-yl)but-2-en-1-one] | 1500 to 5000 |  |  |
| Cc1cc(Nc2ncnn3ccc(C4CCN(C(=O)/C=C/CN5CCC(O)C5)CC4)c23)ccc1Oc1ccc2c(c1)ncn2C (stereo not shown) [Example 130, (E)-4-(3-hydroxypyrrolidin-1-yl)-1-(4-(4-((3-methyl-4-((1-methyl-1H-benzo[d]imidazol-5-yl)oxy)phenyl)amino)pyrrolo[2,1-f][1,2,4]-triazin-5-yl)piperidin-1-yl)but-2-en-1-one] | 1500 to 5000 |  |  |
| Cc1cc(Nc2ncnn3ccc(C4CCN(C(=O)/C=C/CN5CCOCC5)CC4)c23)ccc1Oc1ccc2c(c1)ncn2C [Example 128, (E)-1-(4-(4-((3-methyl-4-((1-methyl-1H-benzo[d]imidazol-5-yl)oxy)phenyl)amino)-pyrrolo[2,1-f][1,2,4]triazin-5-yl)piperidin-1-yl)-4-morpholinobut-2-en-1-one] | 1500 to 5000 | < 200 | < 200 |
| COC1CCN(C/C=C/C(=O)N2CCC(c3ccn4ncnc(Nc5ccc(Oc6ccc7c(c6)ncn7C)c(C)c5)c34)CC2)CC1 [Example 115, (E)-4-(4-methoxypiperidin-1-yl)-1-(4-(4-((3-methyl-4-((1-methyl-1H-benzo[d]imidazol-5-yl)oxy)phenyl)amino)pyrrolo[2,1-f][1,2,4]triazin-5-yl)piperidin-1-yl)but-2-en-1-one] | 1500 to 5000 |  |  |

— US20250276983A1, “COMPOUNDS AND METHODS FOR MODULATING HER2” (IAMBIC THERAPEUTICS, INC., priority 2022, published 2025)
